Values quoted from earlier work in paper PMC9303367, “Synthesis of Aminoethyl‐Substituted Piperidine Derivatives as σ1 Receptor Ligands with Antiproliferative Properties” (Chemmedchem, 2022).

By UniProt entry, the sequences of proteins in these tests, tags left out.
UniProt Q60492, whole entry: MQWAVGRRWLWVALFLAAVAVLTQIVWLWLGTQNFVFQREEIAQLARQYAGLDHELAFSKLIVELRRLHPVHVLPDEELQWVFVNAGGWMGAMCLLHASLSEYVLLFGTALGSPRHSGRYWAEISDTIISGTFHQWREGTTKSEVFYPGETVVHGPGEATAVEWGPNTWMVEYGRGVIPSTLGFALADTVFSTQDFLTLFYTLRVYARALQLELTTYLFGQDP

Biological target: σ1 receptor (Cavia porcellus, UniProt Q60492)
Settings: read-out: σ1 affinity K i±SEM; lead compounds 1–3 (enantiomers); cited from earlier work

c1ccc(CNCC[C@@H]2CCO[C@H](c3ccccc3)O2)cc1
Ki: 6 nM
